Laboratory results from US10507209B2, “Quinazoline derivatives substituted by aniline, preparation method and use thereof” (XUANZHU PHARMA CO., LTD., priority 2010, dated 2019).

How the values were obtained:
[1] = tested on: NCI-N87 cell; test: In vitro cellular inhibitory activity on NCI-N87 gastric carcinoma cells (XTT); assay type: cell-based; conditions: Homo sapiens, 72 hours
[2] = tested on: SKOV-3 human-derived xenografts model in ovarian cancer; test: In vivo pharmacodynamic evaluation, SKOV-3 human-derived xenografts model in ovarian cancer; set-up: species or system BALB/c nude mice; conditions: 50 mg/kg oral once a day; 14 days after the administration
[3] = tested on: BT474 cells; test: In vitro cellular inhibitory activity on BT474 mammary cancer cells (XTT); assay type: cell-based; conditions: Homo sapiens, BT-474, 72 hours

IC50 [1]: 2.11 µM
IC50 [3]: 5.43 µM
Compound: C#Cc1cccc(Nc2ncnc3cc(OCCOC)c(OCCOC)cc23)c1 [Erlotinib, reference compound]
T/C [2]: 83.0%
TGI [2]: 17.0%
Tumor Volume [2]: 1349 ± 142 mm^3
